Results on twelve molecules are retold here after publication PMC7723054.

What all share (assay): FOREST: bead pull-down of RNA structure library v1, barcode microarray; U1A/LIN28A: 20 mM HEPES pH 7.5, 80 mM KCl, 20 mM NaCl, 10% glycerol, 2 mM DTT, 0.1 ug/uL BSA, 4 C; BG4/CIRBP/DHX36: 10 mM Tris-HCl pH 7.5, 100 mM KCl (or LiCl),; high values mean tight binding
One assay deals with U1A (Homo sapiens, UniProt P09012).
The next assay addresses T1, LIN28A (human?, UniProt Q9H9Z2 1-209).
T1 sequence: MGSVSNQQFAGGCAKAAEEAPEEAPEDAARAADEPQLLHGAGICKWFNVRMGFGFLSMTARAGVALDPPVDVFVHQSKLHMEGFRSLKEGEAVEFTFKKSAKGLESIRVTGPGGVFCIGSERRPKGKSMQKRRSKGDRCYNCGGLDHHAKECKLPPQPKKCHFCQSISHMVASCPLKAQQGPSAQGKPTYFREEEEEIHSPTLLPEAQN

A further assay has as its target T2, CIRBP (Homo sapiens, UniProt Q14011 1-172).
T2 sequence: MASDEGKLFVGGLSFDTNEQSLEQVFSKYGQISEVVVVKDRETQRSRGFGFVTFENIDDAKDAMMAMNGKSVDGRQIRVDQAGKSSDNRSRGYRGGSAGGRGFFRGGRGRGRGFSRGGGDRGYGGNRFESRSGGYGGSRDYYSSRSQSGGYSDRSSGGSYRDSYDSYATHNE

In the next assay the target is T3, DHX36 (Homo sapiens, UniProt Q9H2U1 1-1008).
T3 sequence: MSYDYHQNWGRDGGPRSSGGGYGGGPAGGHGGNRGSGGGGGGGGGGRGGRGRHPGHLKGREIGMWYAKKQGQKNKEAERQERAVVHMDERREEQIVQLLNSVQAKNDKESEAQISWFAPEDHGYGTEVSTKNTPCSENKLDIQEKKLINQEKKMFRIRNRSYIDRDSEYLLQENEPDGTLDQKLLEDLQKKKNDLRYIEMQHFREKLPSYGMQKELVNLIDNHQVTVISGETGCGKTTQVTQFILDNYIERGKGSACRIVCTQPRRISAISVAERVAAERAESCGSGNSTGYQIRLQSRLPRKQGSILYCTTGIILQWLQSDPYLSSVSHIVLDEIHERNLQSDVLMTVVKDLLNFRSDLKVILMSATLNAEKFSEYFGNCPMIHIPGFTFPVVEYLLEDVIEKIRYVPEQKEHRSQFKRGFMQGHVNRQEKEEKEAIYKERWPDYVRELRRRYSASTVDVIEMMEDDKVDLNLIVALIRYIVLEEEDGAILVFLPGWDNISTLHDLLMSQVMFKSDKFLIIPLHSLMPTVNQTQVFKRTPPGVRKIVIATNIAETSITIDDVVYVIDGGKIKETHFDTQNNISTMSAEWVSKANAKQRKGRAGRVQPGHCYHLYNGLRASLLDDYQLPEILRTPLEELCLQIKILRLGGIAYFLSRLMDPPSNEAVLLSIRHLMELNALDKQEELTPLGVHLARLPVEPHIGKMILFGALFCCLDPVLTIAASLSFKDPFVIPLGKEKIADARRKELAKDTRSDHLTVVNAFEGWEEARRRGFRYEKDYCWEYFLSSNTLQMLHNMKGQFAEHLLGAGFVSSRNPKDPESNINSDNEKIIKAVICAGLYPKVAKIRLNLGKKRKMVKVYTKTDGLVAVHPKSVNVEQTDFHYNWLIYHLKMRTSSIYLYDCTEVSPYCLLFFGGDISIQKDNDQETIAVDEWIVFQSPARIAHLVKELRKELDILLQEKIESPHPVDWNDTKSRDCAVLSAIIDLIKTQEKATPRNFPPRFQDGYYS

Some of the results follow.

B1: hsa-mir-3656 (structured_RNA)
RNA: GGGAAUCACGUAAUAAAAGGUAGGGCGCGGUGUACGAAGUUUCAGCCGAGGUGGGCUAGGCUCGGGCCCGUGGCGGCUGAAGCUUCGUGCAC
Turning to B1, the binding signal in the assay with U1A was 0.182 z-score; in the assay with LIN28A, 1.63 z-score; with CIRBP, 0.724 z-score; with DHX36, 0.262 z-score.

B2: hsa-mir-1-2 (structured_RNA)
RNA: GGGAGCCUGUUGGUGGGAUCUAAAAUCUGGUGUACGAAGUUUCAGCCCCAUAUGAACAUACAAUGCUAUGGAGCUGAAGCUUCGUGCAC
For the molecule B2, the binding signal with U1A is 0.186 z-score; with LIN28A it was 0.214 z-score; with CIRBP, 0.0347 z-score; in the assay with DHX36 it was 0.211 z-score.

B3: G4_(GGGU)8: (structured_RNA)
RNA: GGGAAAGACAAUAGCUUCCGUGGAGUAUGGUGUACGAAGUUUCAGCGGGUGGGUGGGUGGGUGGGUGGGUGGGUGGGUGCUGAAGCUUCGUGCAC
On to B3, for which the binding signal worked out at 1.84 z-score with U1A, 0.459 z-score in the assay with LIN28A, 4.06 z-score with CIRBP and 7.55 z-score with DHX36.

B4: hsa-mir-572 (structured_RNA)
RNA: GGGAGAAAGGCCUACGCGGUGAUCUACUGGUGUACGAAGUUUCAGCGGAAGGGCGCCUGUGCUUCGUCCGCUGAAGCUUCGUGCAC
On to B4, for which the binding signal with U1A is 0.18 z-score; with LIN28A, -0.0222 z-score; in the assay with CIRBP, -0.303 z-score; with DHX36 it was -0.893 z-score.

B5: hsa-mir-4424 (structured_RNA)
RNA: GGGAACAUCGGGCACAGCCUAAUACCCCGGUGUACGAAGUUUCAGCACUAAUUUUUCCACUAGUUAGUGCUGAAGCUUCGUGCAC
B5: the binding signal is 0.183 z-score with U1A, -0.739 z-score with LIN28A, 0.266 z-score in the assay with CIRBP and -0.294 z-score with DHX36.

B6: hsa-mir-6715a (structured_RNA)
RNA: GGGACUGUUAGCGUUUAUUCACACUUGGGGUGUACGAAGUUUCAGCUGAGCAUUUUUACUGAAUUGCCAGCUGAAGCUUCGUGCAC
Regarding B6, the binding signal with U1A is 0.181 z-score; with LIN28A it was 0.0952 z-score; with CIRBP, -0.641 z-score; with DHX36, 0.00994 z-score.

B7: hsa-mir-3135b (structured_RNA)
RNA: GGGAGGUUAGAGGUGAAGGUUGCGGUAAGGUGUACGAAGUUUCAGCGGUGCAGUCAGUCCUAGCUCGCUGAAGCUUCGUGCAC
In the case of B7, the binding signal was 0.187 z-score in the assay with U1A, -0.603 z-score with LIN28A, -1.25 z-score with CIRBP and -0.697 z-score with DHX36.

B8: hsa-mir-4690 (structured_RNA)
RNA: GGGAAUCGAGGCUCACAAUUCCCUGGAAGGUGUACGAAGUUUCAGCCUGAACCCGUGGGUGAGGAGUGCAGGCUGAAGCUUCGUGCAC
As for B8, the binding signal was 0.188 z-score in the assay with U1A, 2.02 z-score in the assay with LIN28A, 0.0304 z-score with CIRBP and 1.1 z-score with DHX36.

B9: hsa-mir-3160-2 (structured_RNA)
RNA: GGGAACAGUUUACGGGUCUUACGUCACAGGUGUACGAAGUUUCAGCCUCUCCUGACCAGCUGAGCUGGAGGAGAGGCUGAAGCUUCGUGCAC
As for B9, the binding signal with U1A was 0.183 z-score; in the assay with LIN28A, -0.534 z-score; with CIRBP, 0.146 z-score; with DHX36, -0.109 z-score.

B10: hsa-mir-4529 (structured_RNA)
RNA: GGGAACGUGGUCUAUUACACAACGCCCGGGUGUACGAAGUUUCAGCCAAUGAAGACAUGAAGACCCAAUGUCUUCAUUGGCUGAAGCUUCGUGCAC
As for B10, the binding signal with U1A was 0.187 z-score; with LIN28A, -0.719 z-score; in the assay with CIRBP, -0.774 z-score; with DHX36 it was -0.412 z-score.

B11: hsa-mir-5583-2 (structured_RNA)
RNA: GGGACAAGGACGGCAGAUAUAGAAUUGAGGUGUACGAAGUUUCAGCAUUCUGAUGAUCACCUAGCCAGAAUGCUGAAGCUUCGUGCAC
As to B11, the binding signal in the assay with U1A was 0.187 z-score; in the assay with LIN28A it was 0.543 z-score; with CIRBP it was 0.657 z-score; with DHX36, -0.443 z-score.

B12: hsa-mir-6833 (structured_RNA)
RNA: GGGAAGAGUGGCUUUGCCCGGAUAACUCGGUGUACGAAGUUUCAGCGAAAAAUCCCUGUUAACUUUCGCUGAAGCUUCGUGCAC
On to B12, for which the binding signal in the assay with U1A was 0.185 z-score; with LIN28A, -1.42 z-score; in the assay with CIRBP it was -0.18 z-score; with DHX36, -0.765 z-score.
